# Literature values in paper PMC7848973, “In Vivo Efficacy and Metabolism of the Antimalarial Cycleanine and Improved In Vitro Antiplasmodial Activity of Semisynthetic Analogues” (Antimicrobial Agents and Chemotherapy, 2021).
# Settings: in vitro, rat hepatic system; cited from earlier work
substance,measurement,value
N-desmethyl isotetrandrine,Metabolite produced from isotetrandrine,16%
